# Antibody variant affinities, Ab-14 light chain, assay 1

Target: peptide PDVDLGDISGINAS, taken from heptad repeat 2 (HR2) of SARS-CoV-2 spike.

Parent: Ab-14, a human scFv built as VH, three GGGGS repeats, VL. Only the CDRs of the light chain vary.
VH: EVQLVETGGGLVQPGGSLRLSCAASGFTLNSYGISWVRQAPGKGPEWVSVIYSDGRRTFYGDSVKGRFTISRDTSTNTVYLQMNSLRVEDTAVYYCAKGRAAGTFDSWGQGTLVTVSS
VL: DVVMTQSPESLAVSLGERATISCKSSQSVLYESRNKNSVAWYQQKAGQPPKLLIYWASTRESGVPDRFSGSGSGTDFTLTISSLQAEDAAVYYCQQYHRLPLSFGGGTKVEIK

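In library AAYL50, one, two or three CDR residues were substituted; doubles and triples were drawn at random. In AlphaSeq, yeast of one mating type display the scFv and yeast of the other type display the target. Mating (16 h, 30 °C) was followed by selection of diploids and sequencing of their barcodes. Scores were corrected for input abundance and mapped to Kd with protein pairs of known affinity run in the same pool. Mating was done three times.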

Positions count from residue 1 of the parent VL; V29C puts C in place of V. The read-out is the apparent dissociation constant on a log10 scale (nM): the lower, the stronger. "ND" means that the variant was in the library but no mating with the target was seen in that replicate; the authors take this as a sign of poor binding, and no number exists. Background: pairings of library AAYL50 with three empty control strains gave a value in 18% of cases (median 4.19, 5th percentile 2.99). Values in that range, when seen in few replicates, are hard to tell from nonspecific mating. For each scFv, signals with the empty controls are counted beside the result, with their mean in brackets.

changes | log10 Kd, replicates | control signals
V29C+Y31C+Q96Y | 3.29 4.92 ND | 0 of 9
E32C+S58L+Q95C | ND 3.47 3.95 | 1 of 9 (4.13)
S25H+L100N+L102G | ND ND ND | 0 of 9
S25P+L30E+W56L | 1.90 2.58 2.14 | 0 of 9
E32P+N35S+Q96E | 1.60 1.34 1.37 | 2 of 9 (3.67)
V29I+S33V+L100G | ND 3.69 2.59 | 1 of 9 (3.01)
N35Q+S103A | 0.70 0.76 0.89 | 2 of 9 (4.83)
K36Q+T59C | 1.08 1.16 1.04 | 2 of 9 (2.88)
V29P+E61G+L102A | 1.70 1.67 2.69 | 1 of 9 (3.80)
E32N+S38Q+W56E | 0.80 1.01 0.95 | 5 of 9 (5.02)
N35A+Y97L | 2.94 2.67 2.59 | 4 of 9 (3.80)
S25A+N35Y+S62Y | 0.71 0.97 0.91 | 2 of 9 (4.83)
S26C+Y97P | 5.35 ND 5.18 | 3 of 9 (4.34)
R34H+N37K+H98W | 1.21 1.31 1.37 | 1 of 9 (2.60)
K24M+Y97I+P101C | 1.41 1.32 1.28 | 5 of 9 (3.71)
Q27K+S62G+R99L | 5.06 3.04 2.64 | 1 of 9 (4.23)
S25W+Q27A+V29Y | 0.86 0.95 1.03 | 2 of 9 (4.90)
V39Q+Q95E+L100V | ND ND 3.96 | 0 of 9
L30Q+S62K+Q95K | 5.19 ND ND | 1 of 9 (3.87)
A40L+R60T+L100N | 3.93 ND ND | 1 of 9 (3.66)
S25T+E32Y+R34K | 0.85 1.14 0.97 | 1 of 9 (5.83)
S26H+L102G | 1.89 1.76 1.97 | 3 of 9 (5.65)
Q96R+L102Y+S103A | 1.32 1.70 1.57 | 3 of 9 (4.07)
N35L+E61M+Q96W | 2.45 3.52 3.66 | 3 of 9 (3.51)
Q95F+P101A | ND ND ND | 0 of 9
E32A+S33W+A57M | ND 2.16 2.45 | 1 of 9 (4.41)
K24E+K36I+H98K | 3.09 ND ND | 1 of 9 (2.78)
K36E+E61K+S103R | 0.93 1.41 1.25 | 0 of 9
P101E+L102V | 0.20 0.35 0.21 | 1 of 9 (4.56)
S28W+S103Q | 2.77 ND 2.22 | 0 of 9
Q27C+Q96H+L100G | 4.43 1.91 4.37 | 0 of 9
S28N+A57H+S103Y | ND ND ND | 2 of 9 (3.86)
R34H+A57T+E61K | ND 2.52 4.97 | 2 of 9 (4.56)
K24L+S28W+S38R | ND 5.49 6.23 | 3 of 9 (4.87)
W56A+S58A+T59M | 0.30 0.58 0.46 | 5 of 9 (4.57)
V29N+E32H+Q96H | 2.80 2.99 4.20 | 1 of 9 (3.80)

For reference, 6 entries of the list once more:

changes	log10 Kd, replicates	control signals
V29N+E32H+Q96H	2.80 2.99 4.20	1 of 9 (3.80)
S25W+Q27A+V29Y	0.86 0.95 1.03	2 of 9 (4.90)
Q96R+L102Y+S103A	1.32 1.70 1.57	3 of 9 (4.07)
S25A+N35Y+S62Y	0.71 0.97 0.91	2 of 9 (4.83)
E32P+N35S+Q96E	1.60 1.34 1.37	2 of 9 (3.67)
S26C+Y97P	5.35 ND 5.18	3 of 9 (4.34)

For reference, the parent read 0.65 as the reference entry and 1.68 as a member of this library.

From the AlphaSeq antibody data of Engelhart et al. 2022 (doi:10.1038/s41597-022-01779-4), copy in the FLAb collection.